ChEMBL document CHEMBL4680250, “Identification of tetracyclic lactams as NMDA receptor antagonists with potential application in neurological disorders” (Eur J Med Chem, 2020)

Target: Glutamate NMDA receptor
Assay: Antagonist activity at NMDAR in embryonic cultures of rat cortical neuron assessed as inhibition of NMDA-induced calcium influx preincubated for 10 mins followed by NMDA addition by Fluo-4/AM dye based fluorescence assay
Format: tissue-based

IC50: 30 µM
Structure (SMILES): CC12CC3CC(C)(C1)CC(N)(C3)C2 [MEMANTINE]
